Literature values as cited in publication PMC3377386 (Pharmaceutical Research, 2011).

Conditions: healthy human subjects, MN pre-treatment + transdermal naltrexone patch; cited from earlier work

O=C1CC[C@@]2(O)[C@H]3Cc4ccc(O)c5c4[C@@]2(CCN3CC2CC2)[C@H]1O5 [NTX·HCl, naltrexone HCl]
duration of higher (therapeutically relevant) naltrexone plasma levels: up to 72 h

Structures can show the parent of a compound that is named as a salt.
